Source: ChEMBL document CHEMBL5584234, “Small molecules that regulate the N6-methyladenosine RNA modification as potential anti-cancer agents” (Eur J Med Chem, 2024)

Target: Alpha-ketoglutarate-dependent dioxygenase FTO (Homo sapiens, UniProt Q9C0B1)

IC50: 1430 nM
SMILES: O=C(O)c1ccccc1-c1c2cc(F)c(=O)cc-2oc2cc(O)c(F)cc12
